Laboratory results: patent EP0123485A1, “Colon-specific prodrug, the preparation and uses thereof” (priority 1983, dated 1984)
Read-outs that look alike come from different tables or passages of the source.

Assay: physchem
Assay type: physicochemical

With `CC1CC2C3CCC4=CC(=O)C=CC4(C)C3(F)C(O)CC2(C)C1(O)C(=O)COC1OC(CO)C(O)C(O)C1O` [Compound 1, 9 alpha-Fluoro-11 beta, 17 alpha-dihydroxy-16 alpha-methyl-3, 20-dioxopregna-l, 4-dien-21-yl beta-D-glucopyranoside] the logD at 0.5 h (0.01 m phosphate buffer, pH 7, Log P) was 0.59.

With `CC1CC2C3CCC4=CC(=O)C=CC4(C)C3(F)C(O)CC2(C)C1(O)C(=O)COC1OC(CO)C(O)C(O)C1O` [Compound 9, 9 alpha-Fluoro-11 beta, 17 alpha-dihydroxy-16 alpha-methyl-3, 20-dioxopregna-1,4-dien-21-yl beta-D-galactopyranoside] the logD at 0.5 h (n-octanol / 0.01 M phosphate buffer pH 7.0, 37 C, agitated 30 min, read-out: Log P) was 0.49.
